# Laboratory results from US5270148A, “Processing solution for silver halide color photographic materials and method for processing the materials with the processing solution” (priority 1991, dated 1993).
# Assay: oxidation reduction potential of aminopolycarboxylic acid ferric complex salts (bleaching agents)
# Format: physicochemical
# Conditions: vs. NHE, pH = 6
# Description: Then, practical examples of the aminopolycarboxylic acid ferric complex salt in this invention are illustrated below together with their oxidation reduction potentials, but the bleaching agents for use in this invention are not limited to these compounds.
# The oxidation reduction potential of the bleaching agent is defined as the oxidation reduction potential obtained by the method described in Transactions of the Faraday Society, Vol. 55, (1959), pages 1312-1313.
row,Oxidation Reduction Potential,Substance
1,230 mV,Diethylene Thioether Diaminetetra-acetic Acid Ferric Complex Salt [compound 5]
2,110 mV,Ethylenediaminetetraacetic Acid Ferric Complex Salt [compound 8]
3,80 mV,"Trans-1,2-cyclohexanediaminetetra-acetic Acid Ferric Complex Salt [compound 10]"
